Test results: patent US20260384421A1, “NOVEL COMPOUNDS THAT CAN BE USED AS THERAPEUTIC AGENTS” (published 2026)

Legend:
C2C12 cells = assay: alamarBlue proliferation assay with C2C12 cells; conditions: read-out: Activity on C2C12: IC50; C2C12 murine myoblast cells, RPMI 1640 medium, 10% FBS
Excerpt: (§1) These hyperproliferative processes can be benign or malignant and include hyperplasia, neoplasia, cancer and pre-cancerous lesions, and metastases. The antiproliferative activities of compounds falling under general formula (I) were investigated on human primary epidermal keratinocytes (HPEK) and human, murine and canine cell lines derived from hyperproliferative tissue or different cancer types, including MDA-MB-231, ZR-75-30, HCC-1395, HCC-1937, and T-47D all originating from cancer of the breast, JURKAT, RPMI-8402, LOUCY, TANQUE, REC-1, HL-60, NB-4 all originating from different types of blood cancer including lymphoma and leukemia of T-cells, B-cells and myeloid cells, TT originating from cancer of the neuroendocrine system, HeLa originating from cancer of the cervix, 23132/87, SW-948, and HCT-116 all originating from cancer of the gastrointestinal tract including stomach and colon, BHY originating from cancer of the mucosal epithelium, A-431 originating from cancer of the skin, HEP-G2 originating from cancer of the liver, NCI-H460 and A-549 both originating from cancer of the lung, PANC-1 originating from cancer of the pancreas, U-87 MG originating from cancer of the brain, A-375 and RVH-421 both originating from cancer of melanocytes, SW-1353 originating from cancer of bone-derived chondrocytes, C2C12 a mouse cell line originating from hyperproliferative muscle progenitor cells, LL/2 a mouse cell line originating from cancer of the lung, CF21.T a dog cell line originating from cancer of the connective tissue. To this end, according cells were seeded into 96-well plates (CORNING #3598) suitable for fluorescence assays at following initial cell numbers: 1000 cells per well for HPEK; 3000 cells per well for MDA-MB-231, 8000 cells per well for ZR-75-30, 1500 cells per well for HCC-1395, 1500 cells per well for HCC-1937, 3000 cells per well for T-47D, 1500 cells per well for JURKAT, 5000 cells per well for RPMI-8402, 9000 cells per well for LOUCY, 1500 cells per well for TANQUE, 9000 cells per well for REC-1, 1000 cells per well for HL-60, 1000 cells per well for NB-4, 9000 cells per well for TT, 2000 cells per well for HeLa, 2000 cells per well for 23132/87, 9000 cells per well for SW-948, 700 cells per well for HCT-116, 1500 cells per well for BHY, 700 cells per well for A-431, 1500 cells per well for HEP-G2, 500 cells per well for NCI-H460, 1000 cells per well for A-549, 1500 cells per well for PANC-1, 2500 cells per well for U-87 MG, 700 cells per well for A-375, 1500 cells per well for RVH-421, 2000 cells per well for SW-1353, 500 cells per well for C2C12, 500 cells per well for LL/2, and 3000 cells per well for CF21.T. In a volume of 90 μL per well of culture medium the cells were treated with compounds at indicated final concentrations by adding 10 μL per well of 10× compound working solutions from 1:100 pre-diluted 1000× compound DMSO stock-solutions in H2O (Water For Injection, WFI, Fisher Scientific, Gibco™ #A12873) or with the empty carrier DMSO (AppliChem, #A3672) at 0.1% v/v as control yielding a final volume of 100 μL per well. At day 5 after starting the treatments the cells were subjected to the alamarBlue® Proliferation Assay (Bio-Rad Serotec GmbH, BUF012B) according to the protocol of the manufacturer. The readout was taken with a multi-well plate-reader (Tecan Spark®) in the fluorescence mode with applying a filter for excitation at 560 nm (band width 10 nm) and for emission at 590 nm (band width 10 nm). Treatment for maximum proliferation inhibition with the commercial cytotoxic compound (S)-(+)-camptothecin (Fluorochem #M01564) at a concentration of 10 μM was included on each plate for assay quality control. Some of the test compounds of the present invention may have been obtained and applied as their salt forms.
(§2) The assays were performed in duplicate or more replicates of independent single experiments each containing a three- to six-fold replicate for every condition. […]

HPEKp cells = assay: proliferation assay with human epidermal keratinocyte progenitors (HPEKp), selectivity versus MDA-MB-231; conditions: read-out: Activity (HPEK): antiproliferative activity on HPEK cells, IC50 category; HPEK cells cultivated in CnT-Prime medium
MDA-MB-231 cells = assay: alamarBlue proliferation assay with MDA-MB-231 cells (glucose-free Leibovitz's L-15 medium)
HL-60 cells = assay: alamarBlue proliferation assay with HL-60 cells; conditions: read-out: Activity on HL-60: IC50, RPMI 1640 medium, 10% FBS
RVH-421 cells = assay: alamarBlue proliferation assay with RVH-421 cells (glucose-free L-15 medium); conditions: read-out: Activity on RVH-421: IC50, Leibovitz's L-15 medium, 10% FBS, 0% CO2
JURKAT cells = assay: alamarBlue proliferation assay with JURKAT cells; conditions: read-out: Activity on JURKAT (IC50), day 5
Excerpt: as §1, §2

NCI-H460 cells = assay: alamarBlue proliferation assay with NCI-H460 cells; conditions: read-out: Activity on NCI-H460: IC50, RPMI 1640 medium, 10% FBS
SW-948 cells = assay: alamarBlue proliferation assay with SW-948 cells (glucose-free L-15 medium); conditions: read-out: Activity on SW-948: IC50, Leibovitz's L-15 medium, 10% FBS, 0% CO2
TANQUE cells = assay: alamarBlue proliferation assay with TANQUE cells; conditions: read-out: Activity on TANOUE: IC50, RPMI 1640 medium, 10% FBS
NB-4 cells = assay: alamarBlue proliferation assay with NB-4 cells; conditions: read-out: Activity on NB-4: IC50, RPMI 1640 medium, 10% FBS
HCT-116 cells = assay: alamarBlue proliferation assay with HCT-116 cells; conditions: read-out: Activity on HCT-116: IC50, McCoy's 5A medium, 10% FBS
A-549 cells = assay: alamarBlue proliferation assay with A-549 cells; conditions: read-out: Activity on A-549: IC50, DMEM medium, 10% FBS
SW-1353 cells = assay: alamarBlue proliferation assay with SW-1353 cells (glucose-free L-15 medium); conditions: read-out: Activity on SW-1353: IC50, Leibovitz's L-15 medium, 10% FBS, 0% CO2
Excerpt: as §1, §2

[1] = tested on: mitochondrial transmembrane potential Δψm in A-549 cells; assay: mitochondrial activity assay (TMRE staining, mitochondrial transmembrane potential) on A-549 cells; conditions: A-549 cells, compounds at 10 μM, 2 h 40 min, TMRE staining, relative to DMSO = 1.0
[2] = read-out: Activity (MDA): antiproliferative activity on MDA-MB-231 cells, IC50 category, MDA-MB-231 cells cultivated in glucose-free Leibovitz's L-15 medium
[3] = read-out: Activity on MDA-MB-231 (IC50), glucose-free Leibovitz's L-15, 10% FBS, day 5, alamarBlue

SMILES | pIC50 (C2C12 cells) | pIC50 (HPEKp cells) | pIC50 (MDA-MB-231 cells; [2]) | pIC50 (MDA-MB-231 cells; [3]) | pIC50 (HL-60 cells) | pIC50 (RVH-421 cells) | pIC50 (JURKAT cells) | pIC50 (NCI-H460 cells) | pIC50 (SW-948 cells) | other results
NS(=O)(=O)c1ccc(CN2CCN(C(=O)c3ccc(Oc4ccc(C5CCC6(CC5)OCCO6)cc4CO)cc3)CC2)cc1 | ≥ 5.30 | < 5.00 | > 6.00 | ≥ 6.70 | – | – | – | – | – | –
O=C(c1ccc(Oc2ccc(C3CCC4(CC3)OCCO4)cc2CO)cc1)N1CCN(c2ccccc2)CC1 | – | < 5.00 | > 6.00 | ≥ 5.30 | ≥ 4.70 | ≥ 5.30 | ≥ 4.70 | ≥ 4.70 | ≥ 4.70 | –
O=Cc1cc(C2CCC3(CC2)OCCO3)ccc1Oc1ccc(C(=O)N2CCCN(Cc3ccc(Cl)cc3)CC2)cc1 | ≥ 5.30 | > 5.30 | > 6.00 | ≥ 6.70 | – | – | – | – | – | –
O=Cc1cc(C2CCC3(CCCCO3)CC2)ccc1Oc1ccc(C(=O)N2CCN(Cc3ccccc3)CC2)cc1 (stereo not drawn) | ≥ 5.30 | > 5.30 | > 6.00 | ≥ 6.70 | – | – | – | – | – | –
Cn1c(CN2CCN(C(=O)c3ccc(Oc4ccc(C5CCC6(CC5)OCCO6)cc4C=O)cc3)CC2)cc2ccccc21 | ≥ 6.00 | – | – | ≥ 6.70 | – | – | – | – | – | –
O=C(c1ccc(Nc2ccc(C3CCC4(CC3)OCCO4)cc2)cc1)N1CCN(Cc2ccccc2)CC1 | – | > 5.00 | > 5.30 | ≥ 5.30 | ≥ 4.70 | ≥ 5.30 | ≥ 4.70 | ≥ 4.70 | ≥ 4.70 | pIC50 (TANQUE cells): ≥ 5.30; pIC50 (NB-4 cells): ≥ 5.30; pIC50 (HCT-116 cells): ≥ 5.30
O=Cc1cc(C2CCC3(CC2)OCCO3)ccc1Oc1ccc(C(=O)N2CCN(Cc3ccc(OC(F)(F)F)cc3)CC2)cc1 | ≥ 6.00 | – | – | ≥ 6.70 | – | – | – | – | – | –
CS(=O)(=O)c1ccc(CN2CCN(C(=O)c3ccc(Oc4ccc(C5CCC6(CC5)OCCO6)cc4C=O)cc3)CC2)cc1 | ≥ 6.70 | – | – | ≥ 6.70 | – | – | – | – | – | –
O=Cc1cc(C2CCC3(CC2)OCCO3)ccc1Oc1ccc(C(=O)N2CCCN(Cc3ccccc3)CC2)cc1 | ≥ 5.30 | – | – | ≥ 6.00 | – | – | – | – | – | –
O=Cc1cc(C2CCC3(CC2)OCCO3)ccc1Oc1ccc(C(=O)N2CCN(Cc3ccc(Cl)cn3)CC2)cc1 | ≥ 5.30 | – | – | ≥ 6.70 | – | – | – | – | – | –
COc1cccc(CN2CCN(C(=O)c3ccc(Oc4ccc(C5CCC6(CC5)OCCO6)cc4C=O)cc3)CC2)c1 | ≥ 5.30 | – | – | ≥ 6.00 | – | – | – | – | – | –
O=Cc1cc(C2CCC3(CC2)OCCO3)ccc1Oc1ccc(C(=O)N2CCCN(Cc3ccc(C(F)(F)F)cc3)CC2)cc1 | ≥ 6.00 | – | – | ≥ 6.70 | – | – | – | – | – | –
O=C(c1ccc(Oc2ccc(C3CCC4(CC3)OCCO4)cc2CO)cc1)N1CCN(Cc2cnc3ccccc3c2)CC1 | – | > 5.00 | > 6.00 | ≥ 6.70 | ≥ 5.30 | ≥ 6.70 | ≥ 4.70 | ≥ 6.70 | ≥ 6.00 | pIC50 (A-549 cells): ≥ 6.70; pIC50 (SW-1353 cells): ≥ 6.70
O=C(c1ccc(Oc2ccc(C3CCC4(CC3)OCCO4)cc2CO)cc1)N1CCN(Cc2ccc3ccccc3n2)CC1 | – | – | – | ≥ 6.70 | ≥ 5.30 | ≥ 6.70 | ≥ 4.70 | ≥ 6.70 | ≥ 6.00 | pIC50 (A-549 cells): ≥ 6.70; pIC50 (SW-1353 cells): ≥ 6.70
O=Cc1cc(C2CCC3(CC2)OCCO3)ccc1Oc1ccc(C(=O)N2CCN(Cc3ccc(C(F)(F)F)nc3)CC2)cc1 | ≥ 5.30 | – | – | ≥ 6.70 | – | – | – | – | – | –
CC(c1ccccc1)N1CCN(C(=O)c2ccc(Oc3ccc(C4CCC5(CC4)OCCO5)cc3CO)cc2)CC1 (stereo not drawn) | – | – | – | ≥ 6.70 | ≥ 5.30 | ≥ 6.00 | ≥ 4.70 | ≥ 5.30 | ≥ 5.30 | pIC50 (A-549 cells): ≥ 6.70; pIC50 (SW-1353 cells): ≥ 6.70; Activity: relative mitochondrial transmembrane potential Δψm [1]: Δψm ≤0.7
O=Cc1cc(C2CCC3(CC2)OCCO3)ccc1Oc1ccc(C(=O)N2CCN(Cc3ccc(C(F)(F)F)cn3)CC2)cc1 | ≥ 5.30 | – | – | ≥ 6.00 | – | – | – | – | – | –
CN(C)S(=O)(=O)c1ccc(CN2CCN(C(=O)c3ccc(Oc4ccc(C5CCC6(CC5)OCCO6)cc4C=O)cc3)CC2)cc1 | ≥ 6.70 | – | – | ≥ 6.70 | – | – | – | – | – | –
COc1cc(CN2CCN(C(=O)c3ccc(Oc4ccc(C5CCC6(CC5)OCCO6)cc4CO)cc3)CC2)cc(OC)c1 | – | > 5.30 | > 6.00 | ≥ 6.00 | ≥ 5.30 | ≥ 6.00 | ≥ 4.70 | ≥ 5.30 | ≥ 5.30 | pIC50 (A-549 cells): ≥ 5.30; pIC50 (SW-1353 cells): ≥ 6.00
COc1ccc(CN2CCN(C(=O)c3ccc(Oc4ccc(C5CCC6(CC5)OCCO6)cc4C=O)cc3)CC2)cn1 | ≥ 5.30 | – | – | ≥ 6.70 | – | – | – | – | – | –

pIC50: −log10 of the molar value. Like-named read-outs stand apart in the source and are kept apart here.
